# Tests used:
# [1] = test system: human colon cancer cell line (WiDr); test: E7820 and cetuximab in subcutaneous transplant model of WiDr; assay type: in vivo; settings: WiDr s.c. in nude mouse; E7820 oral 50 mg/kg twice a day, cetuximab i.p. 100 mg/kg twice a week, 2 weeks; Day 1 = first administration
# Experimental: (§1) Human colon cancer cell line WiDr (obtained from Dainippon Pharmaceutical) was cultured in RPMI1640 (containing 10% FBS) in a 5% carbon dioxide incubator at 37° C. to about 80% confluence, and the cells were collected with trypsin-EDTA. Using a phosphate buffer, 5×10^7 cells/mL suspension was prepared, and 0.1 mL each of the resulting cell suspension was subcutaneously transplanted to a nude mouse at the side of its body. Ten days after the transplantation, E7820 and cetuximab (Erbitux® purchased from Merck) were administered alone or in combination. E7820 was orally administered at 50 mg/kg twice a day for 2 weeks while cetuximab was intraperitoneally administered at 100 mg/kg twice a week for 2 weeks.
# (§2) The major and minor axes of tumors were measured with Digimatic caliper (Mitsutoyo), and tumor volumes and relative tumor volumes were calculated according to the following formulae.
# Tumor Volume TV=Major axis of tumor(mm)×(Minor axis of tumor)^2(mm^2)/2
# (§3) Relative Tumor Volume RTV=Tumor volume on measurement day/Tumor volume on the first administration day
# [2] = test system: human renal cancer cell line (ACHN); test: E7820 and cetuximab in subcutaneous transplant model of ACHN; assay type: in vivo; settings: ACHN s.c. in nude mouse; E7820 oral 50 mg/kg twice a day, cetuximab i.p. 100 mg/kg twice a week, 2 weeks; Day 1 = first administration
# Experimental: as §1, with “renal” for “colon”, “ACHN” for “WiDr”, “1×10^8” for “5×10^7”, “Eight” for “Ten”, “cetuximab” for “cetuximab (Erbitux® purchased from Merck)”
# as §2
# Tumor Volume TV=Major axis of tumor(mm)×(Minor axis of tumor)^2 (mm^2)/2
# as §3
substance,measurement,setting,value
"Cetuximab: anti-EGFR antibody, Erbitux purchased from Merck",Relative tumor volume on Day 15 Average ± standard deviation,[1],3.2 ± 0.4
same,Relative tumor volume on Day 15 Average ± standard deviation,[2],1.4 ± 0.1

# Source: patent US20090047278A1, “Novel Combinational Use of Sulfonamide Compound” (Eisai R & D Management Co., Ltd., priority 2005, published 2009)
